From PubChem BioAssay
The list shows a part of the results, in another mix than the full data. Records with an inconclusive call do not appear. The source made the active and inactive calls.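 Rule for the calls, unless noted: active = GFP response above 150% of the DMSO level; inconclusive = fewer than 70 events counted for a yeast strain; inactive = the rest.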

The chains behind the UniProt entries cited, without tags or fusion partners. Where a name states a change or a piece, a line headed by the entry shows the natural chain unless it says otherwise.
UniProt P09471, whole entry, looked up: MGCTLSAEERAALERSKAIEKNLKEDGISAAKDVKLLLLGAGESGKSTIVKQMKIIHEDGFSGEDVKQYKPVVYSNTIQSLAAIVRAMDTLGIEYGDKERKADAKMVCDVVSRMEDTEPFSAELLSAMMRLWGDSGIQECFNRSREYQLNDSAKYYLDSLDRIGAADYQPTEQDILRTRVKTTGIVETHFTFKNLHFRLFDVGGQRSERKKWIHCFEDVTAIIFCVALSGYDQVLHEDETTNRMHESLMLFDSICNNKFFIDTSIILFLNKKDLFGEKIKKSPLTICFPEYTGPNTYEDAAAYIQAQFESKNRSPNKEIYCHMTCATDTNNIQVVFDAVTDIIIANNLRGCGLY
UniProt O15492: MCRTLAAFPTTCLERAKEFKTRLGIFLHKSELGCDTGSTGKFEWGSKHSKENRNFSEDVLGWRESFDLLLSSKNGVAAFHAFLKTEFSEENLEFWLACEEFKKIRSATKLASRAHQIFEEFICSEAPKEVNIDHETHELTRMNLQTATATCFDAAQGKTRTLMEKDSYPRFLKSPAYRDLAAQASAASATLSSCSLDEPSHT
UniProt P49795: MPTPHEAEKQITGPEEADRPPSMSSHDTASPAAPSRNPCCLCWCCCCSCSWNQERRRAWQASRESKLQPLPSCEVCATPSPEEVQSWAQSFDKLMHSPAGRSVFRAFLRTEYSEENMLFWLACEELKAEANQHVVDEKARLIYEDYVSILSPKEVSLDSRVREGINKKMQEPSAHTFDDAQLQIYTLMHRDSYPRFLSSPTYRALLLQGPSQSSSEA
UniProt P13612, whole entry, looked up: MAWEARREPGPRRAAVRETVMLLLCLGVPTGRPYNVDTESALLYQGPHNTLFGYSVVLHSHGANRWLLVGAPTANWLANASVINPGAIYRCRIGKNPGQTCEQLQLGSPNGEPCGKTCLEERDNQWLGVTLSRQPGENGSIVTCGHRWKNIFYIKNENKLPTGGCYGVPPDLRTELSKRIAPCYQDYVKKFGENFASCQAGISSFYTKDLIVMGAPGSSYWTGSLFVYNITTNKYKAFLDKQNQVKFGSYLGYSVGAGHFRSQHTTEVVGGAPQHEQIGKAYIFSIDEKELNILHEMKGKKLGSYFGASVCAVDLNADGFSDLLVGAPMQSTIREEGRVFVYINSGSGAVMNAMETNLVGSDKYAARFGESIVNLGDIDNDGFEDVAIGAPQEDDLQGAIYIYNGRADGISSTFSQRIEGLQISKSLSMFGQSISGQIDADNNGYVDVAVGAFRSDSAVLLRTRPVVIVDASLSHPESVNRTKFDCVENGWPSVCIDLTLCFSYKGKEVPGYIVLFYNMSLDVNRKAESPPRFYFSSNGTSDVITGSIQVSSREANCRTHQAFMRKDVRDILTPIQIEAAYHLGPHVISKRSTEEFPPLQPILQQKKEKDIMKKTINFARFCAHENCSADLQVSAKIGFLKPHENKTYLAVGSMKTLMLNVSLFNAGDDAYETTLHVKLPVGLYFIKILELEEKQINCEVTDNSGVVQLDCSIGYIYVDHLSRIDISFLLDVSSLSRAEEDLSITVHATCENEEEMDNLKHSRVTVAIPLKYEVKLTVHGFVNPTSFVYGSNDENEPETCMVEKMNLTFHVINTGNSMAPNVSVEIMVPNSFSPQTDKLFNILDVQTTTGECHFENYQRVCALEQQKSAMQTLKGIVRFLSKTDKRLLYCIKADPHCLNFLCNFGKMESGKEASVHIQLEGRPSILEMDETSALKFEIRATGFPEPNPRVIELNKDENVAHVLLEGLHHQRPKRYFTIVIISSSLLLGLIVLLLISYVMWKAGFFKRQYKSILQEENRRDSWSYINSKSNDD
UniProt P05556, whole entry, looked up: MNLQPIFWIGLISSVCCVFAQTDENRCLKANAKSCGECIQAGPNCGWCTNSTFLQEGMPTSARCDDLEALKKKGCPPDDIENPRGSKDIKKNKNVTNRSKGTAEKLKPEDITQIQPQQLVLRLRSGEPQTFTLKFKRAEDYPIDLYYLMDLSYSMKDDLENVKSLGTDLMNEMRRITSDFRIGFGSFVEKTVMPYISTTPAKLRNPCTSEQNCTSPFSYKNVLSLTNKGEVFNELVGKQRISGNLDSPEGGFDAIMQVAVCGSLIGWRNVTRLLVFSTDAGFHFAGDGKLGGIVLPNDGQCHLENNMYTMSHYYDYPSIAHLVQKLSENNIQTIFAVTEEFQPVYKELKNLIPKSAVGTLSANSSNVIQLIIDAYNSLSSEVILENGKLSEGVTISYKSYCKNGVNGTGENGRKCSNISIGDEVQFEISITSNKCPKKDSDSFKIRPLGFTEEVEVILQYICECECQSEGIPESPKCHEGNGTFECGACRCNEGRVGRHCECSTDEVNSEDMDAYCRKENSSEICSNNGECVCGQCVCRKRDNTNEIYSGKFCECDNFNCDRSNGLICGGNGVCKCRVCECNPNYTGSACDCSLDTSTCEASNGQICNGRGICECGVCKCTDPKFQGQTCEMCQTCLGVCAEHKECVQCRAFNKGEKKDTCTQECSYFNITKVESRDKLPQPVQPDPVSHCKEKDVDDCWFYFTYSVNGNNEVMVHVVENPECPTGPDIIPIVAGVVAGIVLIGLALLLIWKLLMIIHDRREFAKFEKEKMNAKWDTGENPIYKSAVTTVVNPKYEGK
UniProt P25098: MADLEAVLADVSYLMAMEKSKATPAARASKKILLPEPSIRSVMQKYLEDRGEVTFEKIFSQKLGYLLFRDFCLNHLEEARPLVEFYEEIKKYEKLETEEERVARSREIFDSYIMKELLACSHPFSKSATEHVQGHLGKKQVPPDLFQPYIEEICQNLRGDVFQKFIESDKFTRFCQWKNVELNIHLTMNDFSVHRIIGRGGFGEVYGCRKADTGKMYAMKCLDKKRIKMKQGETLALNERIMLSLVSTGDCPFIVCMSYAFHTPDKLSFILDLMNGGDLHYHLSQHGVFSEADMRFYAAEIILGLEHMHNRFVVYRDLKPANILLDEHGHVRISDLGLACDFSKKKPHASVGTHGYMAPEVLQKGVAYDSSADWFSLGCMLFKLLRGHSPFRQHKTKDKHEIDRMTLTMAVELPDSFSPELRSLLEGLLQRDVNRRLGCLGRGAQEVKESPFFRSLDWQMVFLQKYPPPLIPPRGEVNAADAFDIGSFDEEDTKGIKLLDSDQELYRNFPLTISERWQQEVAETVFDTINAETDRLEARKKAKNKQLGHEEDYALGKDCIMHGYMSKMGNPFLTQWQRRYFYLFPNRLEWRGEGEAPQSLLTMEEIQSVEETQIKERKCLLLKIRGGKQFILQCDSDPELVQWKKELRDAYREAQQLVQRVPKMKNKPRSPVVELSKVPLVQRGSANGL
UniProt P63010: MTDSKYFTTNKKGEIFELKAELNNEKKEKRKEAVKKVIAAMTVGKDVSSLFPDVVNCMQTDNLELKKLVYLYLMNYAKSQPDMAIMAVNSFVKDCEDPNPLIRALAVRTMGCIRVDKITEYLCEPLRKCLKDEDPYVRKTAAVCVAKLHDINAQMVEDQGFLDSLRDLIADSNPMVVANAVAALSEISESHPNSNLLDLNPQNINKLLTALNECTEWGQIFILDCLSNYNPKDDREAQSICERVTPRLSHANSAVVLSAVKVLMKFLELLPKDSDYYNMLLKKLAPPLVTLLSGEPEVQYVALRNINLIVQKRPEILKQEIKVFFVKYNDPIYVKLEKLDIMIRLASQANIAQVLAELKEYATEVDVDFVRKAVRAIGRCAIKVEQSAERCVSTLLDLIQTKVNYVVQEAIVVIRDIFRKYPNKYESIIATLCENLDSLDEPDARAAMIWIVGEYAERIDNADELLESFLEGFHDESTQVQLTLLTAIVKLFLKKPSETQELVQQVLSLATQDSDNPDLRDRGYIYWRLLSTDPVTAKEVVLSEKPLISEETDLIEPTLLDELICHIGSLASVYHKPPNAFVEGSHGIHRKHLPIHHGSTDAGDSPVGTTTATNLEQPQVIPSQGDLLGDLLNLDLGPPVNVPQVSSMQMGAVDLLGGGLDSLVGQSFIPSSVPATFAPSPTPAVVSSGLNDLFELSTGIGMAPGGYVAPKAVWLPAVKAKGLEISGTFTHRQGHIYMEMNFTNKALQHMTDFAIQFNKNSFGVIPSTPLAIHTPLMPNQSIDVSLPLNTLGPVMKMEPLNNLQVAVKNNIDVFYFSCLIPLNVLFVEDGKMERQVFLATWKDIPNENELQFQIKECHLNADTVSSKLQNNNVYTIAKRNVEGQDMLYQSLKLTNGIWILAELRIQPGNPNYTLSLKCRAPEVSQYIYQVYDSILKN
UniProt Q9NP58: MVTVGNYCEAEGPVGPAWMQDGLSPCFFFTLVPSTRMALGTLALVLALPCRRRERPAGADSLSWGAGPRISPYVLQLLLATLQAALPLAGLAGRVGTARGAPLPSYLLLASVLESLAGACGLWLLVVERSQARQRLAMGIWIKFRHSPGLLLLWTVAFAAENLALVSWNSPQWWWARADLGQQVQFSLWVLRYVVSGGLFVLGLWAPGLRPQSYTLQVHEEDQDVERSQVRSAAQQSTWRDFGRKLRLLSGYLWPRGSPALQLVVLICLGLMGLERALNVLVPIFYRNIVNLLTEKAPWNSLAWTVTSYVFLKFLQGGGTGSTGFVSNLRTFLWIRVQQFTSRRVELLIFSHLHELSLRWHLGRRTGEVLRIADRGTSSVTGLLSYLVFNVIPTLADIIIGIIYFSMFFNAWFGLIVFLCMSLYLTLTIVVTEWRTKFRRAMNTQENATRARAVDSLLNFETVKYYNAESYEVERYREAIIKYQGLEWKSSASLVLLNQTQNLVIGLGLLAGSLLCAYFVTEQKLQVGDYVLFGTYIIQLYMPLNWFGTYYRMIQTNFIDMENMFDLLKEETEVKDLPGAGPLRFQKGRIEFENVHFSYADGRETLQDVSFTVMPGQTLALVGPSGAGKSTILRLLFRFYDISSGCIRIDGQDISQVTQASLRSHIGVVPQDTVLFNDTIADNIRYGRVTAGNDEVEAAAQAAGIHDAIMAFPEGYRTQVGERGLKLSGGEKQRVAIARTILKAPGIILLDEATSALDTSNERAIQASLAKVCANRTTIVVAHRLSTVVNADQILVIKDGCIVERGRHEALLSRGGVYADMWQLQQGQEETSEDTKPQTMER

Columns and labels:
[1] = RPL19A-GFP modulators, yeast TOR pathway, confirmation, cell-based, S. cerevisiae, flow cytometry, cherry picks, mother/daughter gates (AID 2270;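 active = GFP response below 50% of the DMSO control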); conditions: S. cerevisiae RPL19A-GFP strain, 3 h, at 10 µM, hits give low values, 100 = same GFP as DMSO wells
[2] = LAP4-GFP expression modulators in yeast, confirmation, cell-based, cherry picks, flow cytometry, mother/daughter gates (AID 2271;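 active = GFP response above 150% of the DMSO control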;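 note: ratio of sample to DMSO plate mean so 100% equals DMSO level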); conditions: S. cerevisiae LAP4-GFP strain, 3 h, at 10 µM, hits give high values, 100 means same as DMSO control
[3] = modulators of MEP2-GFP levels in yeast, confirmation, S. cerevisiae, flow cytometry GFP, cherry picks (AID 2272;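 active = GFP response above 150% of the DMSO control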;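 note: ratio of well signal to plate DMSO mean so 100% equals DMSO level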); conditions: S. cerevisiae MEP2-GFP strain, 3 h, at 10 µM, hits give high values
[4] = AGP1-GFP expression modulators, hit retest, confirmation, cell-based, flow cytometry, S. cerevisiae, cherry picks (AID 2273);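 note: median GFP channel fluorescence over the whole cell population gate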; conditions: S. cerevisiae AGP1-GFP strain, 3 h, at 10 µM
[5] = modulators of CIT2-GFP expression in yeast, confirmation, S. cerevisiae, GFP fusion, cherry picks, mother/daughter gates (AID 2274); conditions: S. cerevisiae CIT2-GFP strain, flow cytometry, 3 h; at 10 µM; hits give high values
[6] = compound autofluorescence in yeast s288c, dose response, artefact control for yeast TOR pathway GFP screen, s288c strain (AID 2757;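 active = fluorescence span over the dose series, or activity score, above about 33, limit read from the data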;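 note: thousands of bead-calibrated equivalent soluble fluorophore molecules from median cell fluorescence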); conditions: S. cerevisiae s288c, 520 nm autofluorescence, flow cytometry, 3 h; at 33 µM; hits give high values; zero means same as solvent-only cells
[7] = disruption of biotin probe capture by avidin, counter-screen for RGS protein interaction modulators, biochemical, flow cytometry, bead-based (AID 1783;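 active = inhibition above 50%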;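 note: median green fluorescence of gated singlet beads compared with DMSO control wells; 0% = DMSO wells and 100% = complete loss of bead fluorescence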); conditions: streptavidin beads, fluorescein-biotin binding, at 10 µM, hits give high values
[8] = biological target: Guanine nucleotide-binding protein G(o) subunit alpha (Homo sapiens) (UniProt P09471); test: RGS8-Galphao binding modulators, confirmation, biochemical, multiplexed bead flow cytometry, single concentration (AID 1836; in the data active = binding response below about 72% or above about 130%; inactive = in between;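 note: Galphao activated as GDP AlF4 complex before binding bead RGS8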); conditions: bead-based flow cytometry RGS8-Galphao binding, fluorescence; at 10 µM; actives lie on both sides
[9] = biological target: Guanine nucleotide-binding protein G(o) subunit alpha (Homo sapiens) (UniProt P09471); test: RGS7-Galphao binding modulators, confirmation, biochemical, multiplexed bead flow cytometry, single concentration (AID 1837; in the data active = response below about 75% or above about 130%; inactive = in between;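 note: fluorescent Galphao activated with GDP and aluminum fluoride binding bead-coupled RGS7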); conditions: bead-based flow cytometry RGS7-Galphao binding; at 10 µM; actives lie on both sides
[10] = biological target: Regulator of G-protein signaling 16 (Homo sapiens) + Guanine nucleotide-binding protein G(o) subunit alpha (Homo sapiens) (UniProt O15492+P09471); test: modulators of RGS16-Galphao protein binding, confirmation, biochemical, single concentration, multiplexed bead flow cytometry (AID 1838; in the data active = response below about 74% or above about 130%; inactive = in between;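 note: Galphao activated as the GDP aluminium fluoride complex binding bead-coupled RGS16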); conditions: bead-based flow cytometry, at 10 µM, actives lie on both sides
[11] = biological target: Guanine nucleotide-binding protein G(o) subunit alpha (Homo sapiens) (UniProt P09471); test: modulators of RGS4-Galphao protein binding, confirmation, biochemical, single concentration, multiplexed bead flow cytometry (AID 1840; in the data active = binding response below about 74% or above about 130%; inactive = in between); conditions: at 10 µM, actives lie on both sides
[12] = biological target: Guanine nucleotide-binding protein G(o) subunit alpha (Homo sapiens) + Regulator of G-protein signaling 19 (Homo sapiens) (UniProt P09471+P49795); test: regulators of RGS19-Galphao binding, confirmation, biochemical, single point, multiplexed bead flow cytometry (AID 1841; in the data active = response below about 50% or above about 160%; inactive = in between;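 note: 100% = no compound control and 0% = blank background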); conditions: bead-based flow cytometry RGS19-Galphao binding; at 10 µM; actives lie on both sides
[13] = yeast TOR pathway RPL19A-GFP modulators, primary screen, cell-based, S. cerevisiae, multiplex flow cytometry (AID 1862; in the data active = percent of DMSO control GFP below about 86%;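 note: lower values mimic rapamycin by blocking the RPL19A rise seen in DMSO cells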); conditions: S. cerevisiae RPL19A-GFP strain, flow cytometry fluorescence, 3 h; at 10 µM; hits give low values
[14] = modulators of MEP2-GFP levels in yeast, primary screen, S. cerevisiae, multiplex flow cytometry (AID 1867;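 active = GFP response, as percent of the DMSO control, above the screen-wide mean plus 3 SD, about 139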;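 note: median GFP channel fluorescence of barcode-gated MEP2-GFP cells measured by flow cytometry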); conditions: S. cerevisiae MEP2-GFP strain, 3 h, at 10 µM, hits give high values, 100% means same as DMSO wells
[15] = modulators of CIT2-GFP expression in yeast, primary screen, S. cerevisiae, GFP fusion, multiplex flow cytometry (AID 1870;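 active = percent response above a set limit, the screen-wide mean plus 3 SD, cut at about 130% in these data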;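 note: barcoded CIT2-GFP strain pooled with four other GFP strains with rapamycin as positive control; median GFP fluorescence per well over plate mean of DMSO wells so 100% = DMSO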); conditions: 3 h, at 10 µM, hits give high values
[16] = modulators of LAP4-GFP expression in yeast, primary screen, S. cerevisiae, multiplex flow cytometry (AID 1873;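 active = GFP signal, as percent of the solvent control, above the screen mean plus 3 SD, about 149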); conditions: 3 h, at 10 µM, hits give high values
[17] = modulators of AGP1-GFP expression in yeast TOR pathway, primary screen, cell-based, multiplex flow cytometry, S. cerevisiae (AID 1887;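 active = GFP signal above the screen-wide mean plus 3 SD, that is over about 124.5% of the solvent control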;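 note: AGP1-GFP fusion strain of S. cerevisiae within a five-strain barcoded multiplex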); conditions: 3 h, at 10 µM, hits give high values
[18] = inhibitors of CD8+ T cell-vesicle binding, pilot screen, LFA-1/ICAM-1 modulator project, MLPCN validation set, flow cytometry (AID 2523;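 active = response below a set limit, under 55% cells CD8-positive and vesicle-bound, and CD8 cells' 90th-percentile brightness under 279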;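 note: mean PE anti-B7-1 fluorescence of CD8+ cells relative to row control; 100% = QL9-loaded vesicles with DMSO vehicle in the same plate row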); conditions: 2C mouse CD8+ T cells, at 7 µM, hits give low values
[19] = biological target: Integrin beta-1 (Homo sapiens) + Integrin alpha-4 (Homo sapiens) (UniProt P13612+P05556); test: inhibition of HUTS-21 binding to VLA-4, pilot screen, VLA-4 allosteric modulator project, U937 cells, HUTS-21 mAb, flow cytometry, validation set (AID 2674;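 active = inhibition above 50%, about 3 SD of the validation set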;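 note: antibody binding induced by the VLA-4 ligand LDV present at three times its Kd; 0% = LDV ligand with antibody and no compound and 100% = antibody without LDV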); conditions: HUTS-21 LIBS mAb binding, at 6.7 µM, hits give high values, binding induced by LDV ligand
[20] = superoxide lowering in aged yeast cells, pilot screen, validation compound set (AID 2706;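 active = superoxide response below 65% of plate, a cut near 3 SD across the whole screen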;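 note: yeast exposed to compound for one week at 30 degrees C before staining; 100% = mean of all compound wells on the same plate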); conditions: S. cerevisiae aging, superoxide DHE fluorescence; at 10 µM; hits give low values
[21] = biological target: Beta-adrenergic receptor kinase 1 (Homo sapiens) (UniProt P25098); test: GRK2 binders displacing RNA aptamer, biochemical, validation, human GRK2, bead flow cytometry (AID 488806;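 active = aptamer binding inhibition above 30%, about 3 SD of noise from non-fluorescent compounds; inactive = inhibition at or below 30%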); conditions: bead-bound GRK2, FAM-aptamer displacement, at 10 µM, hits give high values
[22] = biological target: Beta-2 adrenergic receptor (Homo sapiens) (UniProt P07550); test: beta2AR agonists driving receptor internalization, pilot screen, cell-based, FAP fluorogen, flow cytometry, validation set (AID 504459;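 active = percent response above 42, roughly 3 SD of non-fluorescent test compounds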;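 note: agonist-driven loss of surface beta2AR via internalization measured by FAP dye flow cytometry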); conditions: Am2.2-beta2AR cells, FAP surface receptor flow cytometry; at 10 µM; hits give high values
[23] = biological target: AP-2 complex subunit beta (Homo sapiens) (UniProt P63010); test: inhibitors of arrestin peptide binding to AP2, pilot screen, biochemical, validation set, GST-AP2 beads, flow cytometry (AID 504541;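 active = inhibition above 54%, about 3 SD of non-fluorescent compounds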;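 note: AP2 carries R879A mutation and is captured from E. coli lysate; bead-bound FITC arrestin peptide fluorescence measuring arrestin peptide binding to AP2; 0% = DMSO wells and 100% = excess unlabeled arrestin peptide control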); conditions: FITC arrestin peptide, at 10 µM, hits give high values, AP2 beta2 appendage fragment, R879A mutant
[24] = yeast V-ATPase proton transport modulators, S. cerevisiae, pHLuorin, HTS validation (AID 504600; in the data active = response above about 15%;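 note: plate controls were DMSO for no effect and reference compound for full effect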); conditions: S. cerevisiae pHLuorin cytosolic pH, at 10 µM, hits give high values
[25] = test system: anti-desmoglein-3 scFv antibody binding to human DSG3; test: inhibitors of anti-DSG3 scFv binding to DSG3, pilot screen, biochemical, validation compound set, bead-based, flow cytometry (AID 588368;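 active = binding below the plate cutoff, the plate median minus 3 SD, with a reading above zero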;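 note: signal is the median channel fluorescence of bead-bound GFP antibody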); conditions: Protein G beads, DSG3-Fc, scFv-GFP binding, at 10 µM, hits give low values
[26] = biological target: ATP-binding cassette sub-family B member 6 (Homo sapiens) (UniProt Q9NP58); test: ABCB6 transporter inhibitors, pilot screen, K562-ABCB6 cells, flow cytometry, validation set (AID 588550;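 active = inhibition above the screen-wide mean plus 3 SD, about 51%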;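 note: 0% = DMSO wells and 100% = benzethonium chloride 70 µM positive control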); conditions: K562-ABCB6 porphyrin accumulation, 1 h, at 10 µM, hits give high values
[27] = promoters of myeloid differentiation in arrested cells, primary screen, cell-based, GFP/MAC1 double positive, flow cytometry, validation set (AID 588685;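 active = differentiation response of at least 50%, scaled between solvent and reference control, from cells with both markers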;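 note: compound exposure lasts four days before antibody staining and flow analysis; 0% = DMSO wells and 100% = 5 µM fulvestrant positive control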); conditions: ER-HoxA9 marrow cells, hits give high values, normalized: vehicle 0, fulvestrant 100

C[N+]1=C2C=CC=CC=C2SC12C([N+](=O)[O-])=CC([N+](=O)[O-])=C[C-]2[N+](=O)[O-] (stereo not drawn)
active: GFP response relative to DMSO [2] 167%
inactive: GFP response vs DMSO [1] 98% | GFP response vs DMSO [3] 101% | GFP response, % of DMSO [4] 104% | GFP response, % of DMSO [5] 100% | fluorescence change (kMESF span) [6] -0.2

CCOP(=O)(Nc1cccc2ccccc12)OCC
inactive: GFP response vs DMSO [1] 98.6% | GFP response relative to DMSO [2] 98.2% | GFP response vs DMSO [3] 101% | GFP response, % of DMSO [4] 102% | GFP response, % of DMSO [5] 103%

c1ccc(-c2nn[nH]n2)c(-c2nn[nH]n2)c1
inactive: inhibition [7] 1.6% | binding response (% of control) [8] 98.6% | response (percent of control binding) [9] 91.6% | response (% of control binding) [10] 94.1% | binding response (% of control) [11] 94.2% | response (percent of control binding) [12] 98.2%

O=P(Nc1nccs1)(c1ccccc1)c1nc2ccccc2s1 (stereo not drawn)
inactive: GFP response vs DMSO [1] 97.6% | GFP response relative to DMSO [2] 128% | GFP response vs DMSO [3] 104% | GFP response, % of DMSO [4] 99.7% | GFP response, % of DMSO [5] 97.8%

CN(C(=O)Cc1ccc(Cl)c(Cl)c1)[C@@H]1CCCC[C@H]1N1CCCC1
inactive: percent of DMSO control GFP [13] 98.8% | GFP response vs DMSO [14] 104% | percent response of DMSO control [15] 101% | GFP response vs DMSO [16] 108% | GFP response, % of DMSO [17] 104% | vesicle binding response [18] 122% | inhibition [19] 5.61% | superoxide response (% of plate) [20] 93.4% | aptamer binding inhibition [21] -1% | response [22] 8.89% | inhibition [23] -9.18% | response [24] 0.59% | binding (% of control) [25] 103% | inhibition [26] 1% | differentiation response [27] -0.18%

Nc1cccc2c([As](=O)(O)O)cccc12
inactive: inhibition [7] 0.2% | binding response (% of control) [8] 102% | response (percent of control binding) [9] 101% | response (% of control binding) [10] 102% | binding response (% of control) [11] 104% | response (percent of control binding) [12] 99.4%
